# Measured values taken from patent publication US11530197B2, “Analogs for the treatment of disease” (Insilico Medicine IP Limited, priority 2021, dated 2022).
# System: Collagen I (COL1A1) in LX-2 cells
# Assay: Collagen and Alpha-SMA in LX-2 (Western blot after TGF-β stimulation);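 further: cells serum-starved in 0.4% FBS before treatment, lysates analysed by Western blot, DMSO-only wells as blank and TGF-β alone as maximal induction control, three independent experiments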
# Format: cell-based
# Conditions: Homo sapiens, 4 ng/ml TGF-β for 48 hours, Collagen I normalized to GAPDH
compound,measurement,value
"CC(C)n1cnc(-c2ccc(F)cc2)c1-c1nc(C(=O)Nc2ccc(N3CCN(C)CC3)cc2)c[nH]1 [Compound 112, 5′-(4-fluorophenyl)-3′-isopropyl-N-(4-(4-methylpiperazin-1-yl)phenyl)-1H,3′H-[2,4′-biimidazole]-4-carboxamide]",IC50,< 0.1 nM
